Laboratory results published in patent EP4512403A1, “NEUROPEPTIDE B AND W-RECEPTOR AS A TARGET FOR TREATING MOOD DISORDERS AND/OR CHRONIC STRESS” (Friedrich-Schiller-Universität Jena, priority 2023, dated 2025).

Tested on: mice
Settings: 0.1 µM, 1 µM and 10 µM injected into NAc; scored for 7 days; data not shown

COc1ccc(Oc2c(Cl)cnn(C3c4ccccc4-c4ccccc43)c2=O)cc1 [CYM50769]
health markers score (body weight, state of fur, breathing, posture, stereotypies, movement): 0
